Test results from PubChem BioAssay AID488922 (Johns Hopkins Ion Channel Center, 2010).
The list shows a part of the results, in another mix than the full data. Some salts or complexes appear as unconnected parts, following the source record. Calls of active or inactive are those of the source.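 The calls were made as follows: active = ratio B-score over 3 SD below the library mean, with starting fluorescence within 5 SD of its mean; inactive = the rest, inconclusive results apart.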

The chains behind the UniProt entries cited, without tags or fusion partners.
UniProt Q9NPC2, whole entry: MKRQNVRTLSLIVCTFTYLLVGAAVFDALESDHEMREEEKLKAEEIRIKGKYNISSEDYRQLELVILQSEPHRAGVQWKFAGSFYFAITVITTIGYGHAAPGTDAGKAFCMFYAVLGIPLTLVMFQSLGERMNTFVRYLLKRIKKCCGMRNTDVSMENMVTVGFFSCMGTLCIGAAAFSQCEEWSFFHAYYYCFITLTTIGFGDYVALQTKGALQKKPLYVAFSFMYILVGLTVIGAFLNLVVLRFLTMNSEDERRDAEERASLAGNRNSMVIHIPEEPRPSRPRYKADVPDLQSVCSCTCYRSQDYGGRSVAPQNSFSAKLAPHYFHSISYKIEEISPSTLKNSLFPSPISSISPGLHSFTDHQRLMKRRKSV

molecular target: Potassium channel subfamily K member 9 (Homo sapiens) (UniProt Q9NPC2); experiment: KCNK9 potassium channel inhibitors, primary screen, HEK293 cells, thallium flux (AID 488922); conditions: HEK293 KCNK9, FluxOR thallium flux fluorescence; at 10 µM

SMILES	outcome
Cc1cc(C)cc(OP(C)(=O)Nc2ccc(C)cc2C)c1 (stereo unspecified)	inactive
O=[As](O)(c1cccc(O)c1)c1cccc(O)c1	inactive
Cc1cccc(OCC(=O)OC2CN3CCC2CC3)c1 (stereo unspecified)	inactive
CCOC(=O)c1ccc(NP(C)(=O)Oc2cc(C)cc(C)c2)cc1 (stereo unspecified)	inactive
O=C(OC1CN2CCC1CC2)c1ccc(Cl)cc1 (stereo unspecified)	inactive
CS(=O)(=O)c1ccc(Cl)c(NC(=O)COC(=O)C(O)(c2ccccc2)c2ccccc2)c1	inactive
COc1ccccc1OP(C)(=O)Nc1cccc(Br)c1 (stereo unspecified)	inactive
COc1cc(C(=O)NCC2(N3CCOCC3)CCCCC2)cc(Cl)c1OC(C)C	inactive
O=[As](O)(O)c1cccnc1	inactive
CC(=O)Nc1ccc(Oc2c([N+](=O)[O-])cc([N+](=O)[O-])cc2[N+](=O)[O-])cc1	inactive
COc1ccc2c(c1O)-c1c(O)c(OC)cc3c1[C@H](C2)[N+](C)(C)CC3.O=[N+]([O-])c1cc([N+](=O)[O-])c([O-])c([N+](=O)[O-])c1[O-]	inactive
CC(=O)Nc1ccc([As](=O)(O)O)c(O)c1	inactive
C[C@@H]1C=CCP(=O)(Oc2ccccc2)O1 (stereo partly specified)	inactive
C[C@H]1OP(=O)(Oc2ccccc2)C[C@@H]2O[C@@H]21 (stereo partly specified)	inactive
O=C(OCCN1CCN(CCOCc2ccccc2)CC1)C(O)(c1ccccc1)c1ccccc1	inactive
O=C(OC1CN2CCC1CC2)c1ccc([N+](=O)[O-])cc1 (stereo unspecified)	inactive

SMILES	outcome
CC(=O)c1ccc(N2CC2c2ccncc2)cc1 (stereo unspecified)	inactive
CC(C)c1ccc(OP(C)(=O)Nc2ccc(SC(F)(F)F)cc2)cc1 (stereo unspecified)	inactive
CC(C)(C)C(=O)NC(Sc1ccccc1)C(Cl)(Cl)Cl (stereo unspecified)	inactive
CP(=O)(Nc1ccccc1F)Oc1ccccc1 (stereo unspecified)	inactive
CCOc1ccc(C2=NCC(CBr)S2)cc1 (stereo unspecified)	inactive
O=P1(Nc2nc3ccc(Cl)cc3s2)COc2ccccc2O1 (stereo unspecified)	inactive
CN(C)C(=O)Oc1noc2ccccc12	inactive
O=[N+]([O-])c1cc([N+](=O)[O-])c(OC2CCCCC2O)c([N+](=O)[O-])c1 (stereo unspecified)	inactive
CCCCCOc1ccc(NP(C)(=O)Oc2ccc(Cl)cc2Cl)cc1 (stereo unspecified)	inactive
Cc1ccccc1OP(=O)(Nc1ccccn1)Oc1ccccc1C	inactive
CP(=O)(Nc1ccccc1)Oc1ccc(F)cc1 (stereo unspecified)	inactive
CCC(=O)N1C2C3N(C(=O)CC)C1C1N(C(=O)CC)C(C(N1C(=O)CC)N3C(=O)CC)N2C(=O)CC	inactive
CCN(CC)CCCOC(=O)C(O)(c1ccccc1)C1CCCCC1 (stereo unspecified)	inactive
O=C(OC1CN2CCC1CC2)c1ccccc1 (stereo unspecified)	inactive
Cc1ccc(OP(=O)(Nc2ccccn2)Oc2ccc(C)cc2)cc1	inactive
